Measured values from patent US8017623B2, “Dextromethorphan hydrochloride” (Trinity Laboratories, Inc., priority 2008, dated 2011).

Experiment: solubility

For “3-methoxy-17-methyl-9a, 13a, 14a-morphinan hydrochloride [Dextromethorphan Hydrochloride]”, the solubility in alcohol (alcohol) was “soluble”, the solubility in chloroform (chloroform) was “soluble” and the solubility in water (water at room temperature) was “freely soluble”.
